The list shows a part of the results, in another mix than the full data. Some tests of the compounds listed are not included; inactive here does not mean inactive elsewhere. Results filed as inconclusive are left out. Calls of active or inactive are those of the source. Calls follow the shape of the full dose curve.
% is scaled to controls: 0 for no effect and ±100 for the full control effect.

The nature of the test: Primary qHTS Assay for Foot and Mouth Disease Virus Antivirals against NCGC Sytravon and CBC Compound Libraries: Renilla Luciferase Signal. Also: nearly all actives have a fitted effect of over 55% in size. The settings on record: FMDV replicon cells; at 57.5 µM (top of the series). On the technique in general: In qHTS, concentration-response curves come from the screen itself.
Turning to `Cc1cccc(C(=O)NCC2(N(C)C)CCCCC2)c1`, the activity change, negative = inhibition was inactive: -9.12%.

On to `COc1cc(C(=O)NCC2(N(C)C)CCCCC2)cc(OC)c1OC`, for which the activity change, negative = inhibition was inactive: 11.9%. As for `CC(C)Oc1ccc(C(=O)NCC2(N(C)C)CCCCC2)cc1`, the activity change, negative = inhibition was inactive: -9.17%. The figure for `COc1cccc(C(=O)NCC2(N3CCOCC3)CCCCC2)c1` is inactive: -10.4%; for `CC(C)COc1ccc(C(=O)NCC2(N(C)C)CCCCC2)cc1` it is inactive: 4.89%; for `COc1ccc(C(=O)NCC2(N(C)C)CCCCC2)cc1Cl` it is inactive: -8.67%. The figure for `CN(C)C1(CNC(=O)c2cccs2)CCCCC1` is inactive: -0.455%; for `CCOc1cccc(C(=O)NCC2(N(C)C)CCCCC2)c1` it is inactive: -9.46%; for `O=C(NCC1(N2CCOCC2)CCCCC1)c1cc(=O)c2ccccc2o1` it is inactive: -2.64%. In the case of `CN(C)C1(CNC(=O)c2ccccc2[N+](=O)[O-])CCCCC1` it was inactive: -10.8%; in that of `CCCCOc1ccccc1C(=O)NCC1(N(C)C)CCCCC1`, inactive: -3.7%. Consider `CCOc1ccccc1C(=O)NCC1(N(C)C)CCCCC1`, for which the activity change, negative = inhibition is inactive: 0.574%. Take `CN(C)C1(CNC(=O)c2cccc(Cl)c2)CCCCC1`: the activity change, negative = inhibition was inactive: -12.7%. For the compound `CN(C)C1(CNC(=O)c2ccccc2F)CCCCC1`, the activity change, negative = inhibition was inactive: -14.3%.

As for `CC(CCN(CCCl)CCCl)c1ccccc1` (stereo not given), the activity change, negative = inhibition is inactive: -29.6%.

The values above are taken from PubChem BioAssay AID1745857 (National Center for Advancing Translational Sciences (NCATS), 2022).
